# Measurements as given in patent US11541006B2, “Aqueous formulation for insoluble drugs” (priority 2018, dated 2023).
# Experiment: Solubility of insoluble drugs in F96 LMBW vehicle (Example 4)
# Assay type: physicochemical
# Conditions: stepwise addition until no longer dissolving
substance,measurement,value
Casein,Measured solubility in F96 LMBW Vehicle,1000 µg/mL
